# Results from patent US20240376149A1, “Novel Modulators of GABABR1a” (VIB VZW, priority 2021, published 2024).
# Amino acid sequences for entries named in this document (tags omitted). Residues count along the entry.
# UniProt Q9UBS5, 26-96: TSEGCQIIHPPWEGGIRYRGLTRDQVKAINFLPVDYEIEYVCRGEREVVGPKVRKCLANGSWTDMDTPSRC
# Key:
# [1] = tested on: acute mouse hippocampal slices, CA3-CA1 Schaffer collateral (SC) synapses; test: Ex vivo fEPSP short-term facilitation in acute hippocampal slices (multi-electrode array); format: cell-based; settings: for Ex vivo assay 1 μM (short-term facilitation): peptide 1 μM, vs scrambled control peptide, burst of 5 stimuli at 20 Hz; for Ex vivo assay 10 μM (short-term facilitation) / Increase in short-term facilitation after preincubation with GABABR antagonist CGP-54626: peptide 10 μM; for Ex vivo assay 10 μM (short-term facilitation): vs scrambled negative control at 10 μM; for Increase in short-term facilitation after preincubation with GABABR antagonist CGP-54626: slices preincubated with CGP-54626
# Method: The effect of a selection of GABABR1a-SD1 binders on synaptic transmission was tested in an ex vivo experiment using acute mouse hippocampal slices comprising an intact circuit of CA3-CA1 Schaffer collateral (SC) synapses. In short, a burst of 5 stimuli at 20 Hz was applied to Schaffer collaterals to induce short-term facilitation, which inversely correlates with the probability of neurotransmitter release.
# Recordings were done in C57BL/6J mice (2 months old). For tissue preparation, mice were anesthetized with isoflurane and rapidly decapitated to prepare acute 300 μm-thick parasagittal brain slices on a Leica VT1200 vibratome. Slicing was performed in cold sucrose based cutting solution (ACSF) that consisted of (in mM): 87 NaCl, 2.5 KCl, 1.25 NaH2PO4, 10 glucose, 25 NaHCO3, 0.5 CaCl2, 7 MgCl2, 75 sucrose, 1 kynurenic acid, 5 ascorbic acid, 3 pyruvic acid (pH 7.4 with 5% CO2/95% O2). Slices were allowed to recover at 34° C. for 35 min, and subsequently maintained at room temperature for at least 30 min before use. Before recordings, slices were preincubated in artificial cerebrospinal fluid (ACSF, 119 mM NaCl, 2.5 mM KCl, 1 mM NaH2PO4, 11 mM glucose, 26 mM NaHCO3, 4 mM MgCl2 and 4 mM CaCl2, pH 7.4) containing peptide of interest or scrambled/control peptide (1 or 10 uM). Preincubation was performed in the multielectrode array recording chamber (60MEA200/30iR-Ti-gr, Multichannel Systems) for 60 min at 32° C., using custom-made local carbogenation rings (5% CO2/95% 02). Field excitatory post-synaptic potentials (fEPSPs) were recorded from Schaffer collateral-CA1 synapses by stimulating and recording from the appropriate (visually identified) electrodes (MEA-2100, Multichannel Systems). Input-output curves were recorded for each slice by applying single-stimuli ranging from 500 to 2750 mV with 250 mV increments. Stimulus strength that corresponds to 35% of maximal response in the input-output curve was used for following recordings. Train stimulations of 10, 20 and 50 Hz (5 stimuli per train) were recorded with 10 minutes intervals. Recordings were processed and analysed using Multi Channel Experimenter software (Multi Channel Systems).
# [2] = target: T1, GABABR1a-SD1 (SD1-FITC-9mer complex) (Homo sapiens, UniProt Q9UBS5); test: Fluorescence polarization (FP) competition assay with FITC-9mer; format: binding; settings: for inhibition at 50 µM: peptide at 50 μM, inhibition of FITC-9mer binding to SD1
# T1 construct: The synthetic gene encoding for residues 26-96 of the Sushi1 protein was cloned into a pFloat-SUMO vector; His-SUMO (with 3C protease site) (N, cleaved yes); made in house; host or cells: E. coli BL21(DE3)
# Method: Intrigued by the surprising results of the 5-mer, it was decided to set up a medium- to high-throughput screen to optimize the 5-mer sequence. Several assays were tested to find a reproducible, robust and cost-effective assay that is also suitable for high-throughput screening. A fluorescence polarization (FP) assay was selected. FP measurements are well-known for receptor binding assays. The assay is based on the rotational movement of fluorescently labelled molecules in solution. […] The FP assay was optimized using the FITC labelled sAPP 9-mer (FIG. 1).
# To screen for GABABR1a binders using unlabelled test compounds, the assay was turned into a competition assay using FITC-9mer. […] To validate this inhibitor assay, the IC50 values were determined of the 17-mer, 9-mer, 5-mer as well as those from 3 negative controls: 10-mer, scrambled 17-mer and a scrambled 9-mer (FIG. 2).
# To determine if the peptides of this application were able to disrupt the SD1-9-mer complex, each peptide (in single point or dose-response curve) tested was incubate with SD1 protein for 1 h at RT. After this initially incubation, FITC-9mer was added to the previous mix and incubated during 2 h at RT. The signal intensity was measure in an appropriate plate reader using the following settings: Number of flashes per well: 200; Excitation: F482-16; Dichroic filter: FLP 504; Emission A F530-40; Gain A: 738, Gain B: 736. The assay was conducted in a 384-well plate.
Structure (SMILES),inhibition at 50 µM [2] [%],further results
"CC[C@H](C)[C@H](NC(=O)[C@@H](N)CC(=O)O)C(=O)N[C@@H](Cc1c[nH]c2ccccc12)C(=O)N[C@@H](Cc1c[nH]c2ccccc12)C(=O)NCC(=O)O [VIB_P29, DIWWG]",75,Ex vivo assay 1 μM (short-term facilitation) [1]: Active; Ex vivo assay 1 μM (short-term facilitation) ([1]; listed as P29): statistically significantly increase in facilitation
"CC(C)[C@H](NC(=O)[C@@H](N)CC(=O)O)C(=O)N[C@@H](Cc1c[nH]c2ccccc12)C(=O)N[C@@H](Cc1c[nH]c2ccccc12)C(=O)NCC(=O)O [VIB_P33, DVWWG]",66,–
"CC[C@H](C)[C@H](NC(=O)[C@@H](N)CC(=O)O)C(=O)N[C@@H](Cc1c[nH]c2ccccc12)C(=O)N[C@@H](Cc1c[nH]c2ccccc12)C(=O)N[C@@H](CO)C(=O)O [VIB_P34, DIWWS]",81.9,Ex vivo assay 1 μM (short-term facilitation) [1]: Active; Ex vivo assay 1 μM (short-term facilitation) ([1]; listed as P34): statistically significantly increase in facilitation; Ex vivo assay 10 μM (short-term facilitation) [1]: Active; Ex vivo assay 10 μM (short-term facilitation) ([1]; listed as P34): statistically significant increase in short-term facilitation; Increase in short-term facilitation after preincubation with GABABR antagonist CGP-54626 [1]: could not be detected anymore
"CC[C@H](C)[C@H](NC(=O)[C@@H](N)CC(=O)O)C(=O)N[C@@H](Cc1ccccc1)C(=O)N[C@@H](Cc1c[nH]c2ccccc12)C(=O)N[C@@H](CO)C(=O)O [VIB_P35, DIFWS]",55.9,–
"CC[C@H](C)[C@H](NC(=O)[C@@H](N)CC(=O)O)C(=O)N[C@@H](Cc1c[nH]cn1)C(=O)N[C@@H](Cc1c[nH]c2ccccc12)C(=O)N[C@@H](CO)C(=O)O [VIB_P37, DIHWS]",20,pIC50 [2]: 4.45
"CC(C)[C@H](NC(=O)[C@@H](N)CC(=O)O)C(=O)N[C@@H](Cc1c[nH]c2ccccc12)C(=O)N[C@@H](Cc1c[nH]c2ccccc12)C(=O)N[C@@H](CO)C(=O)O [VIB_P39, DVWWS]",85.5,pIC50 [2]: 4.86
"CC(C)[C@H](NC(=O)[C@@H](N)CO)C(=O)N[C@@H](Cc1ccc(O)cc1)C(=O)N[C@@H](Cc1c[nH]c2ccccc12)C(=O)N[C@@H](CO)C(=O)O [VIB_P41, SVYWS]",5.28,–
"CC[C@H](C)[C@H](NC(=O)[C@@H](N)CC(=O)O)C(=O)N[C@@H](Cc1ccc(O)cc1)C(=O)N[C@@H](Cc1c[nH]c2ccccc12)C(=O)NCC(=O)O [VIB_P42, DIYWG]",47.9,–
"CC[C@H](C)[C@H](NC(=O)[C@@H](N)CC(=O)O)C(=O)N[C@@H](Cc1ccc(O)cc1)C(=O)N[C@@H](Cc1c[nH]c2ccccc12)C(=O)N[C@@H](CO)C(=O)O [VIB_P43, DIYWS]",48.6,Ex vivo assay 10 μM (short-term facilitation) [1]: Active; Ex vivo assay 10 μM (short-term facilitation) ([1]; listed as P43): statistically significant increase in short-term facilitation; Increase in short-term facilitation after preincubation with GABABR antagonist CGP-54626 [1]: could not be detected anymore
"CC[C@H](C)[C@H](NC(=O)CN)C(=O)N[C@@H](Cc1ccc(O)cc1)C(=O)N[C@@H](Cc1c[nH]c2ccccc12)C(=O)N[C@@H](CO)C(=O)O [VIB_P47, GIYWS]",53.4,Ex vivo assay 10 μM (short-term facilitation) [1]: Active; Ex vivo assay 10 μM (short-term facilitation) ([1]; listed as P47): statistically significant increase in short-term facilitation
"CC(C)[C@H](NC(=O)[C@@H](N)CC(N)=O)C(=O)N[C@@H](Cc1c[nH]c2ccccc12)C(=O)N[C@@H](Cc1c[nH]c2ccccc12)C(=O)N[C@@H](CO)C(=O)O [VIB_P48, NVWWS]",33.5,–
"CC[C@H](C)[C@H](NC(=O)[C@@H]1CCCN1)C(=O)N[C@@H](Cc1ccc(O)cc1)C(=O)N[C@@H](Cc1c[nH]c2ccccc12)C(=O)N[C@@H](CO)C(=O)O [VIB_P49, PIYWS]",25,–
"CC(C)[C@H](NC(=O)[C@@H](N)CC(=O)O)C(=O)N[C@@H](Cc1ccc(O)cc1)C(=O)N[C@@H](Cc1c[nH]c2ccccc12)C(=O)NCC(=O)O [VIB_P53, DVYWG]",33.5,–
"CC(C)[C@H](NC(=O)[C@@H](N)CC(N)=O)C(=O)N[C@@H](Cc1c[nH]c2ccccc12)C(=O)N[C@@H](Cc1c[nH]c2ccccc12)C(=O)NCC(=O)O [VIB_P56, NVWWG]",17.9,–
"NC(=O)C[C@H](N)C(=O)N[C@@H](Cc1ccccc1)C(=O)N[C@@H](Cc1ccc(O)cc1)C(=O)N[C@@H](Cc1c[nH]c2ccccc12)C(=O)N[C@@H](CO)C(=O)O [VIB_P58, NFYWS]",-7,–
"CC(C)[C@H](NC(=O)CN)C(=O)N[C@@H](Cc1ccc(O)cc1)C(=O)N[C@@H](Cc1c[nH]c2ccccc12)C(=O)N[C@@H](CO)C(=O)O [VIB_P60, GVYWS]",47.5,–
"CC[C@H](C)[C@H](NC(=O)[C@@H](N)CC(N)=O)C(=O)N[C@@H](Cc1ccc(O)cc1)C(=O)N[C@@H](Cc1c[nH]c2ccccc12)C(=O)N[C@@H](CO)C(=O)O [VIB_P63, NIYWS]",19.4,–
"CC[C@H](C)[C@H](NC(=O)[C@@H](N)CC(N)=O)C(=O)N[C@@H](Cc1c[nH]c2ccccc12)C(=O)N[C@@H](Cc1c[nH]c2ccccc12)C(=O)NCC(=O)O [VIB_P65, NIWWG]",41.4,–
"CC[C@H](C)[C@H](NC(=O)[C@@H](N)CC(N)=O)C(=O)N[C@@H](Cc1c[nH]c2ccccc12)C(=O)N[C@@H](Cc1c[nH]c2ccccc12)C(=O)N[C@@H](CO)C(=O)O [VIB_P66, NIWWS]",66.4,–
"CC[C@H](C)[C@H](NC(=O)[C@@H](N)CC(N)=O)C(=O)N[C@@H](Cc1ccc(O)cc1)C(=O)N[C@@H](Cc1c[nH]c2ccccc12)C(=O)NCC(=O)O [VIB_P68, NIYWG]",15.9,–

# pIC50: −log10 of the molar value.
